Measurements from article PMC8200345 (American Journal of Clinical Dermatology, 2021).

Key:
[1] = human, in vivo

N#CC[C@H](C1CCCC1)n1cc(-c2ncnc3[nH]ccc23)cn1 [ruxolitinib]
Dose-PK model: exponent on transformed %BSA, estimate [1]: 0.602 | Change in mean platelet volume (phase III studies combined): No change | Correlation between ruxolitinib Css quartiles and hemoglobin (phase III studies combined): no correlation | Transient increase in platelet count, change from baseline (week 2, return to baseline by week 4): < 30%
